Where two headings read alike, the source gives them in different places.
Assays:
[1] = target: T1, bradykinin type 1 (BK1) receptors (Oryctolagus cuniculus, UniProt P48748); assay: rabbit aorta in vitro B1 antagonist activity; conditions: reversal of des-Arg9-bradykinin contraction of rabbit aorta strips
T1 construct: Spiral strips were mounted under 2 g resting tension in 5 mL tissue baths; from tissue; host or cells: rabbit thoracic aorta spiral strips (New Zealand White)
T1 sequence (P48748 1-352): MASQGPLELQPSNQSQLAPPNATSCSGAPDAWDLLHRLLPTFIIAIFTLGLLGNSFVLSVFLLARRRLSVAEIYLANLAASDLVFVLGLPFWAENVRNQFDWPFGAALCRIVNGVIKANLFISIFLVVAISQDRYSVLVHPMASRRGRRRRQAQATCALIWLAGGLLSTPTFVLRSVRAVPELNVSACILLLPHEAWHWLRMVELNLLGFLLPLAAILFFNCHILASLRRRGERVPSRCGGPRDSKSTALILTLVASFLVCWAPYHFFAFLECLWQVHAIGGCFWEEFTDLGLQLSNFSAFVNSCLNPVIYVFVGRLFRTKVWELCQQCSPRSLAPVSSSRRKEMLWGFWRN
Procedure: Female New Zealand White rabbits were killed by overdose of pentobarbital (80 mg/kg i.v.) and the thoracic aorta removed. Spiral strips were mounted under 2 g resting tension in 5 mL tissue baths containing Krebs solution (118.3 mM NaCl, 4.7 mM KCl, 2.5 mM CaCl2, 1.2 mM MgSO4 1.2 mM KH2 PO4, 25 mM NaHCO3, 25 mM glucose, and 2.8 μM indomethacin) and aerated with 95% O2 /5% CO2. Two concentration-effect curves for des-Arg^9 -bradykinin were constructed at 1 and 3 hours. At five hours des-Arg^9 -bradykinin was added to the bath to a final concentration of […]. This produced stable, sustained and prolonged contractions of up to 45 minutes.

By UniProt entry, the sequences of proteins in these tests, tags left out.
UniProt P25023, whole entry: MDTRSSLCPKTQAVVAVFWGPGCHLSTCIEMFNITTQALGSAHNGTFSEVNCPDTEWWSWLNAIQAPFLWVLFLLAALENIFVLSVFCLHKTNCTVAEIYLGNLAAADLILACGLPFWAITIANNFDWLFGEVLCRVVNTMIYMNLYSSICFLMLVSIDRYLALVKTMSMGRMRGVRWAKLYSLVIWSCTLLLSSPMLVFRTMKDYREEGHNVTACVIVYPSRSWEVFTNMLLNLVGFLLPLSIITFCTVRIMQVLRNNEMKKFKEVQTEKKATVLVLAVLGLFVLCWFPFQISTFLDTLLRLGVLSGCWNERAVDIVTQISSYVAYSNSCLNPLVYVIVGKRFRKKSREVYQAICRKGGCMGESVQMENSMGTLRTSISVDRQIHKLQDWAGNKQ
UniProt O70526, whole entry: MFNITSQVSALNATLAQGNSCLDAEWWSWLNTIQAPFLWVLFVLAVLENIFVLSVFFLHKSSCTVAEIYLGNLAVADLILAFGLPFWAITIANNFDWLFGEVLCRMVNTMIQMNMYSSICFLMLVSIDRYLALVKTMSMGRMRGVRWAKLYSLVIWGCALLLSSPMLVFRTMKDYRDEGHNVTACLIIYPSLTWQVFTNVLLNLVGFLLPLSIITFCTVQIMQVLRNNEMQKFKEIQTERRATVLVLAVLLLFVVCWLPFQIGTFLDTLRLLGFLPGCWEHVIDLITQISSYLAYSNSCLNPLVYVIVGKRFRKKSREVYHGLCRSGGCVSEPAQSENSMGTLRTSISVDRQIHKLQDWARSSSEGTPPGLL

[2] = target: T2, bradykinin type 2 (BK2) receptors (Rattus norvegicus, UniProt P25023); conditions: antagonist preincubated for 15 minutes
T2 construct: Uterine horns were removed, placed under a 1 g resting tension in 4 mL tissue baths; from tissue; host or cells: rat uterine horns (Sprague-Dawley, stilbesterol-pretreated)
Procedure: The standard rat uterus pA2 assay was conducted as follows:
Female Sprague-Dawley rats (200-250 g) were pretreated with stilbesterol (100 μg/kg) and killed 18 hours later by a blow on the head and exsanguinated. Uterine horns were removed, placed under a 1 g resting tension in 4 mL tissue baths containing De Jalon's solution at 31° C. and aerated. […] Antagonist potency was calculated according to the method of Arunlakshana and Schild (Arunlakshana, O., Schild, H. O., Br. J. Pharmacology 14 48-58 (1959)). […] The difference in pD2 values compared to concurrent control reflected the "percentage recovery" of agonist response.

[3] = target: T3, bradykinin type 2 (BK2) receptors (Cavia porcellus, UniProt O70526); assay: antagonist binding to guinea pig ileum (tritium labeled bradykinin); conditions: read-out: B2 binding (G.P.I.); guinea pig ileum membranes
T3 construct: from tissue; host or cells: guinea pig ileum membrane preparation (Hartley strain)
Procedure: Radioactivity was determined by liquid scintillation counting.

[4] = tested on: blood pressure responses to vasoactive agents; assay: selectivity of intravenous CP-0597, rabbit blood pressure; type: in vivo; conditions: 0.1 μg/kg/min
Source text: Male New Zealand White rabbits were anesthetized with pentobarbital and femoral arteries were cannulated for the recording of blood pressure. Cannulae were placed in the femoral veins for the bolus injection or continuous infusion of compounds. […] Following an equilibration period the specific experimental procedure was started.

[5] = battery of plasma and tissue preparations (stability towards protease enzyme activity); type: in vitro ADME; conditions: plasma, kidney and lung preparations of Table 2
Procedure: Membrane preparations were stored at -20° C.
The stability assays summarized in Table 2 represent in vitro tests. The actual stability of an individual compound in plasma or kidney or lung tissue in a living animal may vary. However, the in vitro assay provides a reproducible method for comparison of many compounds without sacrificing large numbers of animals for in vivo experimentation. Thus, this battery of plasma and tissue preparations allows a very broad screening for stability of peptides towards protease enzyme activity likely to be encountered by a peptide drug.

## D-Arg-Arg-Pro-Hyp-Gly-Thi-Ser-D-Cpg-NChg-Arg [Compound 10]
[1]
  B1 (Rabbit Aorta): 5.34

## D-Arg-Arg-Pro-Hyp-Gly-Thi-Ser-D-NBng-NChg-Arg [Compound 7]
[1]
  B1 (Rabbit Aorta): < 5

## D-Arg-Arg-Pro-Hyp-Gly-Thi-Ser-D-NBng-Oic-Arg [Compound 6]
[1]
  B1 (Rabbit Aorta): < 5

## D-Arg-Arg-Pro-Hyp-Gly-Thi-Ser-D-Phe-NChg-Arg [Compound 9]
[1]
  B1 (Rabbit Aorta): 5.52

## D-Arg-Arg-Pro-Hyp-Gly-Thi-Ser-D-Tic-NChg-Arg [Compound 5]
[2]
  B2 pA2 (Rat Uterus): 9.5 ± 0.05
[2]; listed as CP-0597, 15 min
  B2 pA2 (Rat Uterus): 9.5
[1]
  B1 (Rabbit Aorta): < 5
[3]
  Ki: 1.3 pM
[4]
  Selectivity (i.v. infusion): BK2 block only
[5]
  half-life in all of these tests: greater than six hours

## D-Arg-Arg-Pro-Hyp-Gly-Thi-Ser-D-Tic-NCpg-Arg [Compound 8]
[1]
  B1 (Rabbit Aorta): < 5

## D-Arg-Arg-Pro-Hyp-Gly-Thi-Ser-D-Tic-NMch-Arg [Compound 12]
[1]
  B1 (Rabbit Aorta): < 5

## D-Arg-Arg-Pro-Hyp-Gly-Thi-Ser-D-Tic-Oic-Arg [HOE-140, reference compound]
[2]
  B2 pA2 (Rat Uterus): 10.3
[3]
  Ki: 1.4 pM

## D-Arg-Arg-Pro-Hyp-Gly-Thi-Ser-Igl*-NChg-Arg [Compound 3]
[2]; 15 min
  B2 pA2 (Rat Uterus): 6.41 ± 0.49
[1]
  B1 (Rabbit Aorta): < 5

## D-Arg-Arg-Pro-Hyp-Gly-Thi-Ser-NPeg-Oic-Arg [Compound 11]
[1]
  B1 (Rabbit Aorta): < 5
